Data from ChEMBL document CHEMBL1125045, “Hemicholinium-3 congeners as potential antagonists to organophosphate-induced toxicity” (1990).

Columns and labels:
Mus musculus [1] = assay: Tested for its ability to protect mice against paraoxon-induced lethality; no death to 2079 uM/Kg; conditions: in vivo
Oryctolagus cuniculus = species: Oryctolagus cuniculus; assay: Ability to inhibit neuromuscular transmission in rabbit was determined
Mus musculus [2] = species: Mus musculus; assay: Percent survival of the mice after a fractional dose of 50 at 0.5 hr of pretreatment with paraoxon
Mus musculus [3] = species: Mus musculus; assay: Percent survival of the mice after a fractional dose of 0 at 2 hr of pretreatment with paraoxon
Mus musculus [4] = species: Mus musculus; assay: Percent survival of the mice after a fractional dose of 75 at 0.5 hr of pretreatment with paraoxon
Mus musculus [5] = species: Mus musculus; assay: Percent survival of the mice after a fractional dose of 0 at 0.5 hr of pretreatment with paraoxon
Mus musculus [6] = species: Mus musculus; assay: Protecting activity after paraoxon induced toxicity.
[7] = Therapeutic index is the ratio of LD50 to ED50
Mus musculus [8] = species: Mus musculus; assay: Percent survival of the mice after a fractional dose of 63 at 0.5 hr of pretreatment with paraoxon
Mus musculus [9] = species: Mus musculus; assay: Percent survival of the mice after a fractional dose of 88 at 0.5 hr of pretreatment with paraoxon
Mus musculus [10] = assay: Percent survival of the mice after a fractional dose of 0 mg/kg at 2 hr of pretreatment with paraoxon
Mus musculus [11] = species: Mus musculus; assay: Percent survival of the mice after a fractional dose of 25 at 0.5 hr of pretreatment with paraoxon
Mus musculus [12] = species: Mus musculus; assay: Percent survival of the mice after a fractional dose of 37 at 0.5 hr of pretreatment with paraoxon
Mus musculus [13] = species: Mus musculus; assay: Percent survival of the mice after a fractional dose of 12 at 2 hr of pretreatment with paraoxon
Mus musculus [14] = assay: Percent survival of the mice after a fractional dose of 38 mg/kg at 2 hr of pretreatment with paraoxon
Mus musculus [15] = assay: Percent survival of the mice after a fractional dose of 100 mg/kg at 2 hr of pretreatment with paraoxon
Mus musculus [16] = species: Mus musculus; assay: Percent survival of the mice after a fractional dose of 100 at 0.5 hr of pretreatment with paraoxon
Mus musculus [17] = assay: Percent survival of the mice after a fractional dose of 88 mg/kg at 2 hr of pretreatment with paraoxon
Mus musculus [18] = assay: Percent survival of the mice after a fractional dose of 25 mg/kg at 2 hr of pretreatment with paraoxon

With `O=C(CN1CCOCC1)c1ccc(-c2ccc(C(=O)CN3CCOCC3)cc2)cc1` the LD50 (Mus musculus [1]) was “no death to 2079 uM/Kg”.

With `C[N+]1(CC(=O)c2ccc(-c3ccc(C(=O)C[N+]4(C)CCCCC4)cc3)cc2)CCCCC1` the Activity (Oryctolagus cuniculus) was 0.11, the Survival (Mus musculus [2]) was 1% and the Survival (Mus musculus [3]) was 1%. For the same compound, the Survival (Mus musculus [4]) was 1% and the Survival (Mus musculus [5]) was 1%.

Work on `CN(C)C(=O)Oc1ccc[n+](C)c1` yielded an ED50 (Mus musculus [6]) of 1.3 µmol/kg and a Therapeutic index [7] of 8.

`CNC(=O)Oc1ccc2c(c1)[C@]1(C)CCN(C)[C@@H]1N2C` gave a Therapeutic index [7] of 60.

In the case of `CC1C[N+](C)(CC(=O)c2ccc(-c3ccc(C(=O)C[N+]4(C)CCOC(C)C4)cc3)cc2)CCO1` (centres undefined), the Survival (Mus musculus [8]) is reported as 1%, the Survival (Mus musculus [9]) is reported as 1% and the Survival (Mus musculus [10]) is reported as 1%. The Survival (Mus musculus [5]) was 1%.

With `CC1CC[N+](C)(CC(=O)c2ccc(-c3ccc(C(=O)C[N+]4(C)CCC(C)C4)cc3)cc2)C1` (centres undefined) the Activity (Oryctolagus cuniculus) was 0.021 and the Survival (Mus musculus [11]) was 1%.

With `O=C(CN1CCCCC1)c1ccc(-c2ccc(C(=O)CN3CCCCC3)cc2)cc1` the Survival (Mus musculus [12]) was 1% and the Survival (Mus musculus [3]) was 1%.

`C[N+]1(CC(=O)c2ccc(-c3ccc(C(=O)C[N+]4(C)CCOCC4)cc3)cc2)CCOCC1` gave an Activity (Oryctolagus cuniculus) of 0.58, a Survival (Mus musculus [11]) of 1% and a Survival (Mus musculus [13]) of 1%.

Work on `CC1CCC[N+]1(C)CC(=O)c1ccc(-c2ccc(C(=O)C[N+]3(C)CCCC3C)cc2)cc1` (centres undefined) yielded an Activity (Oryctolagus cuniculus) of 0.057, a Survival (Mus musculus [3]) of 1% and a Survival (Mus musculus [5]) of 1%.

With `C[N+]1(CC(=O)c2ccc(-c3ccc(C(=O)C[N+]4(C)CCCC4)cc3)cc2)CCCC1` the Activity (Oryctolagus cuniculus) was 0.07, the Survival (Mus musculus [3]) was 1% and the Survival (Mus musculus [5]) was 1%.

Compound `O=C(CN1CCCC1)c1ccc(-c2ccc(C(=O)CN3CCCC3)cc2)cc1` has a Survival (Mus musculus [3]) of 1% and a Survival (Mus musculus [5]) of 1%.

For `C[N+](C)(CC(=O)c1ccc(-c2ccc(C(=O)C[N+](C)(C)CC3OCCCO3)cc2)cc1)CC1OCCCO1`, the Survival (Mus musculus [14]) was 1%, the Activity (Oryctolagus cuniculus) was 0.34 and the Survival (Mus musculus [11]) was 1%. For the same compound, the Survival (Mus musculus [8]) was 1%, the ED50 (Mus musculus [6]) was 0.02 µmol/kg and the Survival (Mus musculus [15]) was 1%. It also gave a Survival (Mus musculus [16]) of 1%, a Survival (Mus musculus [17]) of 1% and a Survival (Mus musculus [9]) of 1%. The Therapeutic index [7] was 360 and the Survival (Mus musculus [18]) was 1%.
